Biological target: IRAK4 (Homo sapiens, UniProt Q9NWZ3)
Assay: IRAK4 Enzymatic Assay
Conditions: read-out: IRAK4 IC50; His-TEV-IRAK4 20 ng/well, ATP 2 μM, STK1-biotin peptide 300 nM, 3 hours at 30° C., FlashPlate radioactivity
Method: IRAK4 is a human purified recombinant enzyme (His-TEV-IRAK1 (194-712)
IRAK4 hydrolyses ATP, autophosphorylates and phosphorylates a Serine/Threonine generic peptidic substrate (STK: 61ST1BLC from CisBio International based in Bagnols/Cèze FR).
Measurement of IRAK-4 inhibition is performed in streptavidin coated 384 well FlashPlate (PerkinElmer #SMP410A). His-TEV-IRAK4 (20 ng/well), ATP (2 μM, [^33P]ATP 0.25 μCi/well), STK1-biotin peptide (300 nM) and compounds in DMSO (range of concentrations from 20 μM to 1nM) or controls (2% DMSO) are incubated for 3 hours at 30° C. in assay buffer: Hepes pH7.0 50 mM, Fatty acid-free BSA 0.1%, Dithiothreitol DTT 2 mM, MgCl2 10 mM, EGTA 0.5 mM, Tween-20 0.01%, MnCl2 5 mM.
Kinase reaction is stopped by addition of EDTA. Supernatant is discarded, plates are washed three times with 150 mM NaCl and radioactivity is then measured in a Microbeta Trilux reader.

Chains of the proteins cited; added tags and fusions are not shown.
UniProt Q9NWZ3, whole entry: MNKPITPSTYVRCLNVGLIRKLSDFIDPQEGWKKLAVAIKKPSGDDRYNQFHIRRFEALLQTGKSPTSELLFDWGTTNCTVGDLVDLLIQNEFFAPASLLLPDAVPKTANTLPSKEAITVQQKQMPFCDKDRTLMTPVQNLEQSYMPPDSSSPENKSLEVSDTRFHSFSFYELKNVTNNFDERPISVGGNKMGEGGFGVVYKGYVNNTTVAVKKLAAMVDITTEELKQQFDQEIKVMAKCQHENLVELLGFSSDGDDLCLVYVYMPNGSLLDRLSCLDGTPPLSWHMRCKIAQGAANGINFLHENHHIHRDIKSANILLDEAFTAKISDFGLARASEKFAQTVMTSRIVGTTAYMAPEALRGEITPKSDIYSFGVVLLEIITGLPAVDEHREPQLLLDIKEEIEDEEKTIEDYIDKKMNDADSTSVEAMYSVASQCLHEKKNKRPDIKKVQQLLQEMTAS

First: Cn1cc(-c2cccc(-c3ncc(-c4cnn(C5CCCSC5)c4)cn3)c2)cn1 (stereo not drawn)
Second: Cn1cc(-c2cccc(-c3ncc(-c4cnn(C5CCOC6(CCOCC6)C5)c4)cn3)c2)cn1 (stereo not drawn) [Example 267, 5-[1-(1,9-Dioxa-spiro[5.5]undec-4-yl)-1H-pyrazol-4-yl]-2-[3-(1-methyl-1H-pyrazol-4-yl)-phenyl]-pyrimidine]
The IC50 of the first is lower: less than 100 nM for the first, 100 to 1000 nM for the second.

`COCC1COCCN1C(=O)Cn1cc(-c2cnc(-c3cccc(-c4cnn(C)c4)c3)nc2)cn1` (stereo not drawn) showed an IC50 of 100 to 1000 nM.
